This assay addresses PD-L1 protein (F19-R238), refolded from E. coli (human, UniProt Q9NZQ7 19-238). Nature of the assay: SPR; BIAcore T100, CM5 chip; PD-1 immobilised, PD-L1 flowed; room temperature; HBS-EP (150 mM NaCl, 10 mM HEPES pH 7.4, 0.005% Tween-20); response units plotted against protein concentrations. Particulars: both partners purified. (In general: In SPR one partner is held on a chip, and binding of the other changes the refractive index at the surface.)

B1: refolded N-loop truncated PD-1 (N33-R147, IgV domain) expressed in E. coli (domain or fragment)
chain: NPPTFSPALLVVTEGDNATFTCSFSNTSESFVLNWYRMSPSNQTDKLAAFPEDRSQPGQDCRFRVTQLPNGRDFHMSVVRARRNDSGTYLCGAISLAPKAQIKESLRAELRVTER
notes: human PD-1, residues N33-R147 (IgV domain, without the N-loop), UniProt Q15116; not glycosylated; Cloned into pET-21a with NdeI and XhoI; also called PD-1 without N-loop (N33-R147)
B1 displayed a Kd of 4.06 nM.

B2: N-loop truncated PD-1 (N33-R147, IgV domain) expressed in insect cells (domain or fragment)
chain: B1 chain
notes: human PD-1, residues N33-R147 (IgV domain, without the N-loop), UniProt Q15116; secreted with an N-terminal gp67 signal peptide; also called N-loop truncated PD-1 (IgV), insect cell expressed; PD-1 protein without N-loop (N33-R147) from insect cells; source: Hi5 insect cells, baculovirus (pFastbac1, gp67 signal peptide), purified from supernatant (His-Trap HP, Superdex 200)
B2 showed an equilibrium dissociation constant (Kd) of 2.49 nM.

A word on the Kd: it is the constant that tells how readily two partners part at equilibrium. Higher therefore signals weaker binding.
